Results reported in ChEMBL document CHEMBL4732103, “Development of Indoleamine 2,3-Dioxygenase 1 Inhibitors for Cancer Therapy and Beyond: A Recent Perspective” (J Med Chem, 2020).

Amino acid sequences for entries named in this document (tags omitted).
UniProt P14902, whole entry, looked up: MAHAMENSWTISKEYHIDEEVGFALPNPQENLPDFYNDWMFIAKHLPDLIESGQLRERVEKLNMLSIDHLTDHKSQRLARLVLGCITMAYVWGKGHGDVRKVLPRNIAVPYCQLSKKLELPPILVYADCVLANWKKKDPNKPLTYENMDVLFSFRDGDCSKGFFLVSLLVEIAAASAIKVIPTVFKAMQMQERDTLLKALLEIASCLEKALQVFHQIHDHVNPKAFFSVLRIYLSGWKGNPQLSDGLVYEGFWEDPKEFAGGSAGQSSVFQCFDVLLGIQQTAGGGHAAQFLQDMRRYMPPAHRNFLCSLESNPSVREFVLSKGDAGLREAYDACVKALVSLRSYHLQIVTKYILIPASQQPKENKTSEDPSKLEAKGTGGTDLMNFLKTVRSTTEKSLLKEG
UniProt Q6ZQW0, whole entry, looked up: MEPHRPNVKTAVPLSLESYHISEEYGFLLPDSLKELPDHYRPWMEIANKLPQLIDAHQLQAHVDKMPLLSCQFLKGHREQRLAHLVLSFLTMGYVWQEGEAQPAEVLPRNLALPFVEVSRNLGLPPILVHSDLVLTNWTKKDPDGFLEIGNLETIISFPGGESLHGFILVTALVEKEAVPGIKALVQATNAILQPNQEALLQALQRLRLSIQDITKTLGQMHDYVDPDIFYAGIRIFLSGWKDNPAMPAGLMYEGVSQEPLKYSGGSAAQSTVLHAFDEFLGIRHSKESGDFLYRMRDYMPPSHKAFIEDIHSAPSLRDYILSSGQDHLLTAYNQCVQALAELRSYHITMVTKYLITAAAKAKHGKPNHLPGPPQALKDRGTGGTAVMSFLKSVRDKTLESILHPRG
UniProt P48775, whole entry, looked up: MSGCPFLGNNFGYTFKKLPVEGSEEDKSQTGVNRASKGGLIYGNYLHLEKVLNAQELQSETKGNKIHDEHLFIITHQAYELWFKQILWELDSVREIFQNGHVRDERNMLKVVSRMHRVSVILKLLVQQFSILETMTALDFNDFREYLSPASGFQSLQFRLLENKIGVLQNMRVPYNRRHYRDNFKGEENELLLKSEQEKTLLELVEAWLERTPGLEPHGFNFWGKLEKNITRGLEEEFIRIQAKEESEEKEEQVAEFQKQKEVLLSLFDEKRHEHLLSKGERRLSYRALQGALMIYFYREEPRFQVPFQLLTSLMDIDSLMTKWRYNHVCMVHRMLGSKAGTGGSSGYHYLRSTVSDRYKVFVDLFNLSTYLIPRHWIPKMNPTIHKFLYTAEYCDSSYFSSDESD

How the values were obtained:
[1] = target: T1, Indoleamine 2,3-dioxygenase 1 (Homo sapiens, UniProt P14902)
[2] = target: T1, Indoleamine 2,3-dioxygenase 1; details: hela
[3] = target: Indoleamine 2,3-dioxygenase 2 (Homo sapiens, UniProt Q6ZQW0)
[4] = target: Tryptophan 2,3-dioxygenase (Homo sapiens, UniProt P48775)

COP(C)(=O)NCCCNc1nonc1/C(=N/O)Nc1ccc(F)c(Br)c1 (centres undefined)
IC50 [1]: 94 nM | IC50 [2]: 12.6 nM | IC50 [3]: 310 nM | IC50 [4]: 2600 nM
